Laboratory results as given in patent publication US7846903B2, “Type II cubic liquid crystal composition” (National Institute of Advanced Industrial Science and …, priority 2004, dated 2010).

Assay: Krafft temperature (TK) by DSC of amphiphilic compound/water system
Type: physicochemical
Details: listed as 1-O-(3,7,11,15-tetramethylhexadecyl)-β-D-xylopyranoside
Method: Liquid crystals such as cubic liquid crystals formed by amphiphilic lipids are formed only at the Krafft temperature (TK), as determined depending on types and concentrations of amphiphilic lipids, or higher. Furthermore, liquid crystals generally undergo a phase transition upon changes in the concentration of the amphiphilic lipid or temperature. Accordingly, the maximal temperature (Tmax) at which a given liquid crystal structure can be stably present is also determined depending on lipid type and concentration of amphiphilic lipid. Thus, a liquid crystal structure formed by a given type of amphiphilic lipid is stably formed in the temperature range between TK and Tmax. […] The Krafft temperature of the amphiphilic lipid can be determined by a method known in the art, such as a method involving the preparation of such a phase diagram (e.g., Laughlin, R. G., “The Aqueous Phase Behavior of Surfactants,” 1994, Academic Press London, pp. 106-117). The Krafft temperature of a mixture of two or more amphiphilic lipids can be determined by the same method. […]
The Krafft temperatures of these amphiphilic compounds and mixtures thereof determined by the analyses described below are shown in Table 2-1 and Table 2-2. […]

SMILES: CC(C)CCCC(C)CCCC(C)CCCC(C)CCOC1OC[C@@H](O)C(O)C1O (stereo partly shown) [formula (13), reference compound]
- TK (Krafft temperature): about 10 °C
